Results published in patent US11485745B2, “Amido spirocyclic amide and sulfonamide derivatives” (Valo Health, Inc., priority 2012, dated 2022).
Several values for one entry are separate records, joined by “and”; a condition that tells them apart may be missing. Identical values can stand only once.

Protein sequences, listed by entry. Tags and fused reporters are not part of them. Lines headed by an entry give the natural chain unless they say otherwise; changes in a name come on top.
UniProt P43490: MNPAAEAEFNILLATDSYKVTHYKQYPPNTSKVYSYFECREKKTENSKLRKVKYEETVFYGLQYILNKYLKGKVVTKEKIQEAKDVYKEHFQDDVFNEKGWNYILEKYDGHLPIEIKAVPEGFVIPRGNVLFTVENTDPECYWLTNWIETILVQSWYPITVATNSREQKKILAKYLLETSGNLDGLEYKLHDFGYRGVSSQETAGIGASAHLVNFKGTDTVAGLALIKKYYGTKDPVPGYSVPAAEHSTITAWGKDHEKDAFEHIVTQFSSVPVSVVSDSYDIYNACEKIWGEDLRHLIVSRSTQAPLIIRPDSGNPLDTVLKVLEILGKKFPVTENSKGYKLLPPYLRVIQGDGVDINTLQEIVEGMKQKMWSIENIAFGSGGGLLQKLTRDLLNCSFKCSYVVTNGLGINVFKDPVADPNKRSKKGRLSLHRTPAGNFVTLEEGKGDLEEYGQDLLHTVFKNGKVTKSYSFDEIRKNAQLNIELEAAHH

molecular target: Recombinant His-tagged NAMPT (Homo sapiens (Human), UniProt P43490); experiment: Biochemical Inhibition Assay (NAMPT enzymatic reaction, NMN quantified by mass spectrometry); details: not given

Row | IC50 | Compound
1 | 14.9 nM | CC1(C)CC1C(=O)N1CCC2(CC1)CC2CNC(=O)N1Cc2ccncc2C1 (stereo not drawn) [Example 377, N-[[6-(2,2-dimethylcyclopropanecarbonyl)-6-azaspiro[2.5]octan-2-yl]methyl]-1,3-dihydropyrrolo[3,4-c]pyridine-2-carboxamide]
2 | 325 nM and 988 nM | CCS(=O)(=O)N1CCC2(CC1)CC2CNC(=O)c1cc2cnccc2[nH]1 (stereo not drawn) [Example 14, N-[(8-ethylsulfonyl-8-azasprio[2.5]octan-2-yl)methyl]-1H-pyrrolo[3,2-c]pyridine-2-carboxamide]
3 | 64.1 nM | CN(C)Cc1ccc(C(=O)N2CCC3(CC2)CC3CNC(=O)c2cc3ccncc3o2)cc1 (stereo not drawn) [Example 71, N-[[6-[4-[(dimethylamino)methyl]benzoyl]-6-azaspiro[2.5]octan-2-yl]methyl]furo[2,3-c]pyridine-2-carboxamide]
4 | 23.3 nM | CC(C)(C)CS(=O)(=O)N1CCC2(CC1)CC2CNC(=O)N1Cc2ccncc2C1 (stereo not drawn) [Example 381, N-[[6-(2,2-dimethylpropylsulfonyl)-6-azaspiro[2.5]octan-2-yl]methyl]-1,3-dihydropyrrolo[3,4-c]pyridine-2-carboxamide]
5 | 1470 nM | CC(C)(C)CS(=O)(=O)N1CCC2(CC1)CC2CNC(=O)c1cc2ccncc2[nH]1 (stereo not drawn) [Example 379, N-[[6-(2,2-dimethylpropylsulfonyl)-6-azaspiro[2.5]octan-2-yl]methyl]-1H-pyrrolo[3,2-c]pyridine-2-caarboxamide]
6 | 14.4 nM | O=C(CCc1ccccc1)N1CCC2(CC1)CC2CNC(=O)N1Cc2ccncc2C1 (stereo not drawn) [Example 199, N-[[6-(3-phenylpropanoyl)-6-azaspiro[2.5]octan-2-yl]methyl]-1,3-dihydropyrrolo[3,4-c]pyridine-2-carboxamide]
7 | 417 nM and 398 nM | CC(C)C(=O)N1CCC2(CC1)CC2CNC(=O)c1cc2cnccc2[nH]1 (stereo not drawn) [Example 12]
8 | 11.1 nM | O=C(CCC1CCCCC1)N1CCC2(CC1)CC2CNC(=O)N1Cc2ccncc2C1 (stereo not drawn) [Example 197, N-[[6-(3-cyclohexylpropanoyl)-6-azaspiro[2.5]octan-2-yl]methyl]-1,3-dihydropyrrolo[3,4-c]pyridine-2-carboxamide]

test system: A2780 cells; experiment: In-Vitro Cell Proliferation Assay (A2780, sulforhodamine B, 72 hours); format: cell-based; details: Homo sapiens, A2780, 72 h, SRB

Row | IC50 | Compound
9 | 2000 nM | CC(=O)N1CCC2(CC1)CC2CNC(=O)c1cc2cnccc2[nH]1 (stereo not drawn) [Example 16, N-[(8-acetyl-8-azaspiro[2.5]octan2-yl)methyl]-1H-pyrrolo[3,2-c]pyridine-2-carboxamide]
